Experimental data published in ChEMBL document CHEMBL1134497, “Soluble 2-substituted aminopyrido[2,3-d]pyrimidin-7-yl ureas. Structure-activity relationships against selected tyrosine kinases and exploration of in vitro and in vivo anticancer activity” (J Med Chem, 2001).

By UniProt entry, the sequences of proteins in these tests, tags left out. Where a name states a change or a piece, a line headed by the entry shows the natural chain unless it says otherwise.
UniProt P05622: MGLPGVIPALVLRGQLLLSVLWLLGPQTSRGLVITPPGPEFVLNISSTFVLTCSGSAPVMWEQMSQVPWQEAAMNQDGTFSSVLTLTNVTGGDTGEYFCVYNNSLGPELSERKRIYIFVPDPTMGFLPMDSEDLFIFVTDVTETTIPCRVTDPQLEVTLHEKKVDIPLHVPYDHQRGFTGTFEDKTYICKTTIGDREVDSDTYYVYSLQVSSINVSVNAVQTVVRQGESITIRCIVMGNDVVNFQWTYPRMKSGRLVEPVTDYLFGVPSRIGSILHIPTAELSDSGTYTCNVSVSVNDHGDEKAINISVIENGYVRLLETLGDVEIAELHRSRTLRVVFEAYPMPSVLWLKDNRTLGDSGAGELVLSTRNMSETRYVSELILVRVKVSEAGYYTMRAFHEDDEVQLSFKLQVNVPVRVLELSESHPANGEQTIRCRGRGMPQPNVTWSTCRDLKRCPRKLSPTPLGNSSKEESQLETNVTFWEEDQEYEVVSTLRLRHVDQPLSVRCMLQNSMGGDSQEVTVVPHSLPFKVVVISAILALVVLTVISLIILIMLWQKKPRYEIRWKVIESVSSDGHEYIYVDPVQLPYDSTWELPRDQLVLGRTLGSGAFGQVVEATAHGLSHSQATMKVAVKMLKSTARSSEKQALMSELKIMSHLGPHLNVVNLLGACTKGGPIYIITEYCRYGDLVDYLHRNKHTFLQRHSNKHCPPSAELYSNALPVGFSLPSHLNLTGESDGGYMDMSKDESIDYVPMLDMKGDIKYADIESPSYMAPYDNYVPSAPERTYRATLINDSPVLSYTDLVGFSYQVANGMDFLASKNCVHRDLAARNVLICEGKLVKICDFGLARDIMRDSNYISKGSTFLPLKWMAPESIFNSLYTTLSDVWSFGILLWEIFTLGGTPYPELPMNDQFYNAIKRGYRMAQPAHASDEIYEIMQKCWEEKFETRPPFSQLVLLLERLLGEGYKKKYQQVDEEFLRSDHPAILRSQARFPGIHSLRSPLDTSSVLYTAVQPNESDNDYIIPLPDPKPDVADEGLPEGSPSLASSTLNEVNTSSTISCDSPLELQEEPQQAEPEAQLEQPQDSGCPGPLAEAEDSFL
UniProt P11362, whole entry: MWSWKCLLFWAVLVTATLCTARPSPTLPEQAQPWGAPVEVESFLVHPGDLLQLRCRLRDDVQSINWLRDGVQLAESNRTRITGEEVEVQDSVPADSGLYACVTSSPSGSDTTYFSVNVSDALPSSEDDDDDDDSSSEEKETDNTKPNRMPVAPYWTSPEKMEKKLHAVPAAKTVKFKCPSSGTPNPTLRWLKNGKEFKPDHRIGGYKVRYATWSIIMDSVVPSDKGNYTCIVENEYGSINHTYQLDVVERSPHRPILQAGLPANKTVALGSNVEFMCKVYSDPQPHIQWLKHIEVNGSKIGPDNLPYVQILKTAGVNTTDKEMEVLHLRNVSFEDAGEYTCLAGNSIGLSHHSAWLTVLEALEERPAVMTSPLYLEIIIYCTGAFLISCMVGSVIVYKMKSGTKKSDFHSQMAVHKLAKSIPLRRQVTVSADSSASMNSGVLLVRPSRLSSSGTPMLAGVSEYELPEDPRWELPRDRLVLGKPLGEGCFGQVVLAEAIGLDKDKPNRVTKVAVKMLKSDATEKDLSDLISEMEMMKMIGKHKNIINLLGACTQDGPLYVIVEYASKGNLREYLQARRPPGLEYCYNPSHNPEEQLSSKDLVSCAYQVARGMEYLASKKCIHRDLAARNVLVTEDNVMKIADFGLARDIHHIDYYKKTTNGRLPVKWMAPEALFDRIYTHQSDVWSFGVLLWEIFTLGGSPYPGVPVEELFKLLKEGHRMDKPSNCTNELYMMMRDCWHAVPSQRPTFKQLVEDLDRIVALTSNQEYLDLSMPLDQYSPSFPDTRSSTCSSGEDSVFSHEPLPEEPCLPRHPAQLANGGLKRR

How the values were obtained:
[1] = target: Platelet-derived growth factor receptor beta (Mus musculus, UniProt P05622)
[2] = target: Fibroblast growth factor receptor 1 (Homo sapiens, UniProt P11362)

| Structure (SMILES) | IC50 [1] [nM] | IC50 [2] [nM] |
| --- | --- | --- |
| CN1CCN(CCCNc2ncc3cc(-c4c(Cl)cccc4Cl)c(NC(=O)NCc4ccccc4)nc3n2)CC1 | 2500 | – |
| COc1ccc(NC(=O)Nc2nc3nc(NCCCN4CCN(C)CC4)ncc3cc2-c2c(Cl)cccc2Cl)cc1 | 680 | 74 |
| CN1CCN(CCCNc2ncc3cc(-c4c(Cl)cccc4Cl)c(NC(=O)NC4CCCCC4)nc3n2)CC1 | 370 | – |
